{"source": "paper PMC9866728", "about": "“Dosing Methods to Enable Cell-Based In Vitro Testing of Complex Substances: A Case Study with a PAH Mixture” (Toxics, 2022)", "origin": "cited, not measured here", "settings": "Table S1; ref PubChem; cited from earlier work"}
{"smiles": "c1ccc2ccccc2c1", "note": "[Naphthalene]", "values": [{"measurement": "LogKow (PubChem)", "value": 3.3}]}
